The values below come from ChEMBL document CHEMBL4043291, “New Inhibitors of Breast Cancer Resistance Protein (ABCG2) Containing a 2,4-Disubstituted Pyridopyrimidine Scaffold” (J Med Chem, 2018).

Structures are written as SMILES.

The test system of this series is ABCB1 (Homo sapiens). Briefly: Inhibition of ABCB1 in human A2780adr cells assessed as increase in accumulation of calcein AM at 10 uM preincubated for 30 mins followed by calcein AM addition measured every 60 secs for 60 mins by fluorescence assay relative to control. The settings on record: probe calcein AM.

The term inhibition denotes the share of the control response that was lost under treatment.

Consider `COc1cccc(-c2nc(Nc3cccc(F)c3)c3cccnc3n2)c1`, for which the inhibition at 1 h, 10 µM is less than 25%.
Turning to `N#Cc1cccc(Nc2nc(-c3ccccc3)nc3ncccc23)c1`, the inhibition at 1 h, 10 µM was less than 25%.
